From paper PMC5675004 (Cancer cell, 2015)

By UniProt entry, the sequences of proteins in these tests, tags left out. Residues count along the entry.
UniProt Q99835, 28-787 W281C: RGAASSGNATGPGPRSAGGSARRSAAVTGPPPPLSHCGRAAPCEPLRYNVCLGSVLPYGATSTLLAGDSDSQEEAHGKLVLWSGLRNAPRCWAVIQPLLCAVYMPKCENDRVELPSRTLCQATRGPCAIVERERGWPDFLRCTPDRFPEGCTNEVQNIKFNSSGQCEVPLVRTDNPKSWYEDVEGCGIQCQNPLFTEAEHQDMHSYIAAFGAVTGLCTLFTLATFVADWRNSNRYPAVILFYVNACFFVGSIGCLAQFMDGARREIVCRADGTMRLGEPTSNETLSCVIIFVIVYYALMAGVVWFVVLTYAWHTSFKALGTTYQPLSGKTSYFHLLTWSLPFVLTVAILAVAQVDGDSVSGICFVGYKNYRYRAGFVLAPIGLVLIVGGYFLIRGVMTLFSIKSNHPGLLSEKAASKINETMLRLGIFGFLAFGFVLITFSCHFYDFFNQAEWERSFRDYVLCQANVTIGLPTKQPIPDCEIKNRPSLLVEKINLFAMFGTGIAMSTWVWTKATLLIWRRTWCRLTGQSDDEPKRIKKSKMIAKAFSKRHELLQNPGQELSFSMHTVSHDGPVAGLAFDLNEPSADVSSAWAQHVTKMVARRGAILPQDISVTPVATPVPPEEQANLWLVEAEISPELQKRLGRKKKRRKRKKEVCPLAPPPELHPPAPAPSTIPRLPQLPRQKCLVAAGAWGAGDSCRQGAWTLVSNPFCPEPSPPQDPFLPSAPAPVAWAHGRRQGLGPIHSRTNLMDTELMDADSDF

What was measured:
[1] = test system: PPT CGNPs infected with SMO-W281C; assay: PPT CGNP proliferation, methyl-[3H]-thymidine incorporation; format: cell-based, mouse; settings: 5 μM vismodegib
SMO-W281C = SMO-W281C (Homo sapiens, UniProt Q99835, W281C); settings: HEK-293 cells, compared with SMO-WT at similar cell surface levels

`CS(=O)(=O)c1ccc(C(=O)Nc2ccc(Cl)c(-c3ccccn3)c2)c(Cl)c1` [vismodegib] was tested, and the “proliferation in the presence of vismodegib” value [1] was “continued to proliferate at near untreated levels” and the “[3H]-vismodegib binding” value (SMO-W281C) was “impaired vismodegib binding”.
